Experimental data reported in paper PMC7615656 (European journal of pharmacology, 2010).

Sequences of proteins named here, by UniProt entry; tags and fusion partners are left off. A change or cut given only in a name is not applied to a line headed by its entry. Residues count along the entry.
UniProt P18508, 39-466: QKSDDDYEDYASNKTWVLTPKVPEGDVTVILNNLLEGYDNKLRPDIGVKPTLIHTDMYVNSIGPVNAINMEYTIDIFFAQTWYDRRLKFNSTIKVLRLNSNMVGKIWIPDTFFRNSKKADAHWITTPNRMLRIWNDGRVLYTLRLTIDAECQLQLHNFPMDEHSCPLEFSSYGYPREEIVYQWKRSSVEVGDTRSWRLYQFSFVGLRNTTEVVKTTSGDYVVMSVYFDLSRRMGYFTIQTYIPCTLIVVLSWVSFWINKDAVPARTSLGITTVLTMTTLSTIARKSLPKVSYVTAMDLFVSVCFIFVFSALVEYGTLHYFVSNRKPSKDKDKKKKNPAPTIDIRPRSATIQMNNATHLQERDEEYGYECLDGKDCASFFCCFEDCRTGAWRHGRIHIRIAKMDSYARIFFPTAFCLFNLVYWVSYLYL
UniProt P18508, 39-466 F115I: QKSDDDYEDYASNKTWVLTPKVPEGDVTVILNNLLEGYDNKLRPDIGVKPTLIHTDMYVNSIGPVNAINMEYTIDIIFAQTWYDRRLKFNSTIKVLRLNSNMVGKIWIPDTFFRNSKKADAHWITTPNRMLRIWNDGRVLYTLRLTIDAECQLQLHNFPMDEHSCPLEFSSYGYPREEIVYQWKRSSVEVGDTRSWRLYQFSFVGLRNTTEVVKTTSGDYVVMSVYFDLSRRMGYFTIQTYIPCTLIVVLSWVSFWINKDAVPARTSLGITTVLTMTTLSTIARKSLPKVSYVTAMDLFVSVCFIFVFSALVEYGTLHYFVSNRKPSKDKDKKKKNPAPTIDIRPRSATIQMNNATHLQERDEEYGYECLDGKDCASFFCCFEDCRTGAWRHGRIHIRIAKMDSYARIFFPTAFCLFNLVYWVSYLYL
UniProt P23576, 29-451: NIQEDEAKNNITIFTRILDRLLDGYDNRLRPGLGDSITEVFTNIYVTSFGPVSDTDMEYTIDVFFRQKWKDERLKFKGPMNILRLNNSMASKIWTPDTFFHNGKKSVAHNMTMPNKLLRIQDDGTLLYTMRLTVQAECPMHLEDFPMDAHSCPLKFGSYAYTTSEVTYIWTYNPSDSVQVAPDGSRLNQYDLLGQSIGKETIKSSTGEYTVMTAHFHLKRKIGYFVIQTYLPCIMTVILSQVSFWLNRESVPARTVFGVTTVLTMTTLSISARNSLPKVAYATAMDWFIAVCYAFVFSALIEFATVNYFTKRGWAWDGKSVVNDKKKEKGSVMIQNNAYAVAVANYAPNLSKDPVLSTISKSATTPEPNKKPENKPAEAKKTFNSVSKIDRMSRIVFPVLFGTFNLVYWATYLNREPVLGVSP

How the values were obtained:
[1] = biological target: recombinant rat α2β3γ2 receptors (Rattus norvegicus, UniProt P18508+P23576); assay: Two-electrode voltage clamp of GABA-induced chloride currents in Xenopus oocytes; type: cell-based; conditions: mean ± SEM
[2] = biological target: recombinant rat α2β3γ2F77I receptors (Rattus norvegicus, UniProt P18508+P23576, F115I); assay: as above; type: cell-based

Compound: NCCCC(=O)O [GABA]
- maximum GABA-induced current [1]: 4 ± 0.4 µA
- Hill coefficient of GABA dose–response curve [2]: 0.8
- maximum GABA-induced current ([2]; mean ± SEM): 7 ± 0.9 µA
